Screening data from PubChem BioAssay.
MC4R antagonist: blocks human MC4R cAMP signaling | inhibition, % at 6.5 µM | P32245 | MC4R-expressing cells, MTII-stimulated cAMP, LANCE TR-FRET | actives 0.48% (n = 360,000);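 active means inhibition above its plate's cutoff, the mean of tested wells on that plate plus 3 SD, cut at about 29% in these data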;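 further: 0% = Melanotan II alone and 100% = Melanotan II plus saturating MCL0020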
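System: U2OS cells stably expressing human melanocortin 4 receptor (MC4R). Reagent: Melanotan II challenge after compound preincubation. Doses: 6.5 µM. Times: 30-min compound, 1-h challenge, 1-h detection, room temperature. Measured by: TR-FRET with Eu-cAMP and labeled anti-cAMP, 671 nm. Replicates: singlicate.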
UUG fidelity: yeast start codon fidelity modulation; AID 602363; activity score, % at 18.7 µM; S. cerevisiae UUG-firefly luciferase reporter, luminescence/redox ratio; 0.13% of 350,000 active;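 active means replicate mean at a twofold rise or more, about +100% in these data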;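 further: firefly luciferase made from a UUG start codon reports start codon fidelity; reporter light over untreated wells divided by growth signal over untreated wells; some hits fall short of that in this replicate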
MC4R ag barr: activates human MC4R beta-arrestin recruitment; P32245; U2OS MC4R beta-arrestin complementation, luminescence; percent of melanotan II response, DMSO zero; activation, % at 8.9 µM; actives 0.98% (n = 360,000);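 active means activation above a per-plate cutoff, the mean activation of sample wells on that plate plus 3 SD, cut at about 8% in these data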
NALP1 yeast inh: NALP1 inhibition. S. cerevisiae NALP1/ASC/caspase-1 growth, X-gal OD620, 72 h. inhibition, % at 10 µM. actives 0.61% (n = 280,000). AID 2071; in the data active means inhibition mostly above about 24%, no sharp cut-off; inactive means mostly below about 32%
HDAC3 inh: human HDAC3 inhibition | inhibition, % at 8.3 µM | O15379 | AID 2718 | recombinant HDAC3, fluorogenic peptide/trypsin coupled, fluorescence | actives 0.15% (n = 320,000); in the data active means inhibition above about 26%, passing the limit was not always enough
ALR inh: human ALR oxidase inhibition via reduced H2O2; P55789; purified ALR, DTT oxidation, H2O2 HRP-luminol luminescence; inhibition, % (concentration not given with the values); 3.8% of 290,000 active; AID 485317;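 active = mean and each replicate at 75% or more; inconclusive = only one of the two met; inactive = neither met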;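 note: stock transfer was 7.5 nL into about 7.5 µL; 0% = neutral wells and 100% = wells with inactivated enzyme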
cAMP nonselect: nonselective cAMP signaling inhibitor, MC4R antagonist counter-screen | shares compounds with MC4R antagonist | parental U2OS, forskolin cAMP, LANCE TR-FRET | inhibition, % at 6.5 µM | AID 602193 | actives 26% (n = 1,600);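 active means mean inhibition over triplicates above the low-control well mean plus 3 SD, set per campaign, cut at about 13% in these data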;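 further: signal is single emission at 671 nm which falls as cellular cAMP rises; 0% = forskolin-stimulated wells and 100% = buffer without forskolin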
MC4R antag conf: human MC4R cAMP antagonism confirmation | shares compounds with MC4R antagonist | actives 27% (n = 1,600) | MC4R-expressing cells, MTII-stimulated cAMP, TR-FRET | AID 602195 | inhibition, % at 6.5 µM; in the data active means inhibition above about 29%;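 further: 0% = agonist stimulated wells alone and 100% = agonist stimulated wells plus saturating reference antagonist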
The depositor's hits bear a star; . = no result. A selection: hits, their analogues and other compounds. The true share with any hit is near 4.2%.

SMILES	MC4R antagonist	UUG fidelity	MC4R ag barr	NALP1 yeast inh	HDAC3 inh	ALR inh	others
CN1C(=O)c2ccccc2NC(=O)[C@]12O[C@@H]2c1ccccc1	-3	-18	-1	-16	0	98*
CC(C)Nc1ccc(Nc2ccccc2)cc1	8	-11	-6	.	-1	99*
N#Cc1cccc(-c2ccc([C@@H]3[C@@H](CO)N4CCCCN(C(=O)Cc5cccnc5)C[C@@H]34)cc2)c1	.	-19	.	.	.	.
CCOc1ccc(N2C(=O)/C(=C\c3cccs3)C(=O)NC2=S)cc1	.	.	.	-22	-3	20
CC1=NN(c2ccccc2)C(=O)C1/C=C1\C(=O)NC(=O)N(c2cc(C)cc(C)c2)C1=O (stereo unspecified)	5	-15	-1	-7	-5	8
CCc1ccc(N2C(=O)NC(=O)/C(=C\C=C\c3ccco3)C2=O)cc1	24	-13	0	.	-2	98*
CC1=NN(c2ccccc2)C(=O)C1/C=C1/C(=O)NC(=O)N(c2cc(C)cc(C)c2)C1=O (stereo unspecified)	3	-17	-1	9	0	87*
Cc1ccc(N2C(=O)NC(=O)/C(=C/C=C/c3ccco3)C2=O)cc1	-1	.	0	28	7	34
CCOc1ccc(N2C(=O)/C(=C/c3ccco3)C(=O)NC2=S)cc1	-7	-16	-1	2	0	98*
Cc1cc(C)cc(N2C(=O)NC(=O)/C(=C\C=C\c3ccco3)C2=O)c1	1	.	0	10	3	96*
O=C(Cc1ccccc1)N1C[C@@H]2[C@H](c3ccccc31)[C@H](CO)N2Cc1ccccc1	.	-10	.	.	.	.
N#Cc1cccc(-c2ccc([C@H]3[C@@H](CO)N4CCCCN(C(=O)Cc5ccncc5)C[C@@H]34)cc2)c1	.	-14	.	.	.	.
O=C(Cc1ccccc1)N1CCCCN2[C@@H](CO)[C@@H](c3ccc(C#Cc4ccccc4)cc3)[C@@H]2C1	.	2	.	.	.	.
CC=Cc1ccc2n(c1=O)C[C@@H]1[C@@H](CO)[C@H](C(=O)OC)[C@H]2N1CC1CC1 (mixture of isomers)	.	-5	.	.	.	.
COc1ccc(C#Cc2ccc([C@@H]3[C@H](CO)N4CCCCN(C(=O)Cc5ccccc5)C[C@@H]34)cc2)cc1	.	-13	.	.	.	.
O=c1c2ccccc2[nH]c(=S)n1-c1ccc(Br)cc1	-6	.	-1	33*	0	3
O=c1[nH]c(=O)n(CCC2=CCCCC2)c(O)c1/C=N/Nc1ccccc1	-3	.	0	11	-2	98*
O=c1[nH]c(=O)n(Cc2ccc(F)cc2)c(O)c1/C=N/Nc1ccccc1	9	.	3	.	1	99*
O=c1[nH]c(=S)n(Cc2ccc(F)cc2)c(O)c1/C=N/N1CCCCCC1	-5	.	1	46*	1	11
CCC(C)n1c(O)c(/C=N/Nc2ccccc2)c(=O)[nH]c1=S (stereo unspecified)	7	.	-2	8	1	100*
O=c1[nH]c(=O)n(CCC2=CCCCC2)c(O)c1/C=N/Nc1cccc2ccccc12	15	.	3	.	0	3
O=C(Nc1cccc(C(F)(F)F)c1)c1cccn(Cc2ccc3c(c2)OC(F)(F)O3)c1=O	10	7	-3	5	-1	-2
CC(C)Oc1cccc(NC(=O)c2cccn(Cc3ccc4c(c3)OC(F)(F)O4)c2=O)c1	18	-8	3	33	34*	-23
Cn1c(O)c(C(=Nc2ccccc2)SCc2ccc(Cl)cc2)c(=O)n(C)c1=O	-4	-9	-1	.	7	98*
O=C(Cc1ccncc1)N1CCCCN2[C@@H](CO)[C@H](c3ccc(C#Cc4ccccc4F)cc3)[C@@H]2C1	.	-2	.	.	.	.
COC(=O)[C@@H]1[C@@H](CO)[C@@H]2Cn3c(ccc(-c4ccccc4)c3=O)[C@H]1N2CCc1ccccc1	.	-5	.	.	.	.
Fc1ccc(CCNCc2ccc(Cl)c(Cl)c2)cc1	1	-18	8.7*	24	0	-1
O=C(Cc1ccccn1)N1CCCCN2[C@@H](CO)[C@@H](c3ccc(-c4ccccc4)cc3)[C@@H]2C1	.	-4	.	.	.	.
CN1CCN(c2ccc(N)c(N3CCN(C)CC3)c2)CC1	9	.	0	46	2	.
CCN1CCN(c2ccc(N)cc2C)CC1	-2	.	-3	18	3	99*
CCN1CCN(c2ccc(N)cc2)CC1	4	.	-3	16	-4	94*
CN1CCN(c2ccc(N)cc2)CC1	-3	-18	-1	30	-6	99*
C/C=C/c1ccc([C@@H]2[C@H](CO)N3CCCCN(C(=O)Cc4ccncc4)C[C@@H]23)cc1	.	-3	.	.	.	.
C[C@H](CO)N1C[C@H](C)[C@@H](CN(C)C(=O)Oc2cccc3ccccc23)OCc2cnnn2CCCC1=O	.	11	.	.	.	.
COc1ccccc1OCC(=O)N1CCCC(N2CCN(c3ccc(F)cc3)CC2)C1 (stereo unspecified)	1	-13	-3	5	-12	95*
O=C(COc1ccccc1Cl)N1CCCC(N2CCN(c3ccc(F)cc3)CC2)C1 (stereo unspecified)	1	-8	0	10	1	10
COc1ccc2oc3c(c2c1)NC(=O)CN=C3c1ccccc1	31*	.	1	23*	-1	-2	cAMP nonselect=4;MC4R antag conf=-8
CN1C(=O)C(c2ccccc2)C(=O)N(C)C1=O	30*	-4	2	.	-2	7	cAMP nonselect=-1;MC4R antag conf=12
COc1ccc(C#Cc2ccc([C@@H]3[C@@H](CO)N4CCCCN(C(=O)Cc5ccccc5)C[C@H]34)cc2)cc1	.	-4	.	.	.	.
C=CCn1c(O)c(C(CC)=Nc2cccc(C(=O)O)c2)c(=O)[nH]c1=O	31*	.	2	-1	-2	-1	cAMP nonselect=1;MC4R antag conf=6
